AlphaSeq binding of Ab-14 heavy chain variants to a spike HR2 peptide

Target: peptide PDVDLGDISGINAS, taken from heptad repeat 2 (HR2) of SARS-CoV-2 spike.

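The parent was found by panning a naive human phage display library on the peptide. The variants were designed computationally from a first round of random CDR variants and then made and measured. Their group label is 14H_En_Gibbs (En: ensemble of fine-tuned language models; Gibbs: Gibbs sampling). The assay is AlphaSeq: two haploid yeast populations carry antibody and antigen on their surface. Mating (16 h, 30 °C) was followed by selection of diploids and sequencing of their barcodes. Each replicate has its own calibration line, from reference interactions of the BCL2 family. There are six technical replicates.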

Parent: Ab-14, a human scFv built as VH, a (GGGGS)3 linker, VL. Only the CDRs of the heavy chain vary.
VH: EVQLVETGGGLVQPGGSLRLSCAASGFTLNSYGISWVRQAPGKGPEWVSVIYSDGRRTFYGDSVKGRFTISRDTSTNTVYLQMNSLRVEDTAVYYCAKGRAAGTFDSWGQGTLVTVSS
VL: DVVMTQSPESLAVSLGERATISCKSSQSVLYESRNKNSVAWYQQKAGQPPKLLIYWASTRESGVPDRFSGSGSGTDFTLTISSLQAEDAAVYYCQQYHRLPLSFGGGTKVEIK

Each variant is given by its three heavy chain CDRs, as the data file delimits them; those of the parent are GFTLNSYGIS, VIYSDGRRTFYGDSVK, GRAAGTFDS.
Scale: log10 of Kd in nM, estimated from mating counts; low values are strong binders.
"n.d." marks a missing value. The strain was present, yet no cells mated with the target were sequenced in that replicate, which points to weak or no binding.
The authors averaged sequences with at least three values out of six and counted those with two or fewer as poor binders.
Nonspecific signal, from three strains lacking the peptide, appeared in 1% of pairings of all heavy chain designs, centred on 2.08 (5% of these signals below 0.84); values are not corrected for it. Also given: how often the same scFv was detected with the empty control strains, with their mean in brackets.
A sequence measured in both rounds can read differently, since the two assays cover different ranges.

CDR-H1	CDR-H2	CDR-H3	log10 Kd, replicates	signal with controls
GFDIEEYGIS	VIYADGIRQAYKDKVK	GWNDGTFSV	n.d. / n.d. / n.d. / n.d. / n.d. / n.d.	0 of 18
GFDLDEYGIS	VIYADGRRSAILESVK	GKIAGTLDA	-0.48 / -0.77 / -0.61 / 0.02 / -0.77 / -0.64	0 of 18
GFDLAEYGIS	VIYADGSRTAYNQNVK	GLGGDSFDF	n.d. / n.d. / n.d. / n.d. / n.d. / n.d.	2 of 18 (2.43)
GQDLSEYGIS	VIYADGVRRSYAESVK	GNTSGNFSS	n.d. / n.d. / n.d. / n.d. / n.d. / n.d.	0 of 18
GQDLDEYGVS	VIYADGQRTQYTNDVK	GLYSGAFII	n.d. / n.d. / n.d. / n.d. / n.d. / n.d.	0 of 18
GFNLDEYGIS	VIYADGTRRYYADSVK	GDEVVVNSI	n.d. / n.d. / n.d. / n.d. / n.d. / n.d.	0 of 18
GFDLAEYGVS	VIYADGKRTHYADHVK	GVNLGFFDL	n.d. / n.d. / n.d. / n.d. / n.d. / n.d.	0 of 18
GKDLEEYGIS	VIYADGMRTQYINAVK	GIAGDQFDV	n.d. / n.d. / n.d. / n.d. / n.d. / n.d.	1 of 18 (2.45)
GFELDEYGIS	VIYADGIRRQYADNVK	GYTDDAFDM	n.d. / n.d. / n.d. / n.d. / n.d. / n.d.	0 of 18
GFQLNEYGIS	VIYADGRRTAYSQSVK	GLNGGIIDV	n.d. / n.d. / n.d. / n.d. / n.d. / n.d.	1 of 18 (1.67)
GFNLDEYGVS	VIYADGNRTQYTEDVK	GTNGGAVDL	n.d. / n.d. / n.d. / n.d. / n.d. / n.d.	1 of 18 (2.85)
GESLESYGIS	VIYADGMRTSYTNSVK	GVWAGTFML	n.d. / n.d. / n.d. / n.d. / n.d. / n.d.	0 of 18
GYDLEEYGIS	VIYADGRRAAYIENVK	DGVNDGVFV	n.d. / n.d. / n.d. / n.d. / n.d. / n.d.	0 of 18
GFNLSEYGIS	VIYADGMRSNYANSVK	GHGGNFFID	0.80 / 0.01 / 0.23 / 1.17 / 0.86 / 0.76	0 of 18
GFNLDEYGIS	VIYADGYRRAYAQEVK	GMNSGFGGT	n.d. / n.d. / n.d. / n.d. / n.d. / n.d.	0 of 18
GFKLNEYGIS	VIYADGQRVAYTDSFK	GTQAGMFFE	n.d. / n.d. / n.d. / n.d. / n.d. / n.d.	0 of 18
GFQIEEYGIS	VIYADGDRKNYDAKVK	GQIAGTLDM	n.d. / -0.05 / -0.02 / -0.25 / -0.64 / 0.01	0 of 18
GFNLDEYGIS	VIYADGARTAYANKVK	GGNWWISVN	n.d. / n.d. / n.d. / n.d. / n.d. / n.d.	0 of 18
GFDINEYGIS	VIYADGMRTAYRDSVK	GEGKWIVLI	n.d. / 3.02 / n.d. / 1.08 / n.d. / 1.03	0 of 18
GFDLGEYGIS	VIYADGQRKAYAQQFK	GEAGGAFDL	1.91 / n.d. / n.d. / n.d. / n.d. / n.d.	0 of 18
GQDLAEYGIS	VIYADGKRTMYANDVK	GHNGGQGKT	n.d. / n.d. / n.d. / n.d. / n.d. / n.d.	0 of 18
GYDLQDYGIS	VIYADGVRQFYHDNFK	GQLAGTFLL	n.d. / n.d. / n.d. / n.d. / n.d. / n.d.	0 of 18
GKSIDEYGIS	VIYADGLRTQYSNKVK	GLEGFAFDQ	n.d. / 1.66 / n.d. / n.d. / n.d. / n.d.	0 of 18
GFDIDEYGIS	VIYADGFRAVYTNSVK	GHNGMRLTV	n.d. / n.d. / n.d. / n.d. / n.d. / 3.17	0 of 18
GEDLQEYGIS	VIYADGFRQSYAEKVK	GQHGGYLVK	n.d. / n.d. / n.d. / n.d. / n.d. / n.d.	1 of 18 (1.48)
GDSLAEYGIS	VIYADGMRSKYSDAFK	GQVAGYFGV	n.d. / n.d. / n.d. / n.d. / n.d. / n.d.	1 of 18 (1.71)
GFNLEEYGIS	VIYADGKRTFYIDAVK	GTWGVFGLG	n.d. / n.d. / n.d. / n.d. / n.d. / n.d.	0 of 18
GFDINEYGIS	VIYADGIRTSYQNKVK	GDSGGIINV	n.d. / n.d. / n.d. / 4.70 / 2.42 / n.d.	1 of 18 (3.88)
GFDLNEYGVS	VIYADGFRTSYTDSVK	GHVVDLLMA	n.d. / n.d. / n.d. / n.d. / n.d. / n.d.	1 of 18 (1.45)
GFSLEEYGIS	VIYADGKRTFYTNAVK	GTWGDFGLG	n.d. / n.d. / n.d. / n.d. / n.d. / n.d.	0 of 18
GADLNEYGIS	VIYADGRSVYYANSFK	GHNAGTFNS	n.d. / n.d. / n.d. / n.d. / n.d. / n.d.	0 of 18
GFSLDEYGVS	VIYADGIRTQYTNDVK	GLYSFAFKM	n.d. / n.d. / n.d. / n.d. / n.d. / n.d.	0 of 18
GYDMEDYGIS	VIYADGSRAAYVDNFK	GELAGTFEM	n.d. / n.d. / n.d. / n.d. / n.d. / n.d.	0 of 18
GDDLEDYGIS	VIYADGRRTAYQESVK	GLYAGYFDV	n.d. / n.d. / n.d. / n.d. / n.d. / n.d.	1 of 18 (2.50)
GFDLDEYGIS	VIYADGRRVVYQDQVK	GELAGTVDQ	n.d. / n.d. / n.d. / n.d. / 3.91 / n.d.	0 of 18
GFDIQDYGIS	VIYADGSRTAYVNSVK	GEWGATLDV	n.d. / n.d. / n.d. / n.d. / n.d. / n.d.	0 of 18
GFSLDEMGIS	VIYADGVRTAYVDQVK	GMGGTFMNV	-0.46 / -0.97 / -1.07 / -1.09 / -0.43 / -0.83	1 of 18 (2.08)
GFDLSEYGIS	VIYADGQRANYVSQVK	GEQAGGFVL	n.d. / n.d. / n.d. / n.d. / n.d. / n.d.	0 of 18
GFDLNEYGVS	VIYADGMRSSYQDKVK	GSNGSLFDV	n.d. / n.d. / n.d. / n.d. / n.d. / n.d.	0 of 18
GRDLDEYGIS	VIYADGTRKMYAPNFK	GEHGGTFLM	n.d. / n.d. / n.d. / n.d. / n.d. / n.d.	0 of 18
GFDIGEYGIS	VIYADGSRTAYAKNVK	GGDVYKDAV	n.d. / n.d. / n.d. / n.d. / n.d. / n.d.	0 of 18

Again, the first 3 entries without any signal:

| CDR-H1 | CDR-H2 | CDR-H3 | log10 Kd, replicates | signal with controls |
|---|---|---|---|---|
| GFDIEEYGIS | VIYADGIRQAYKDKVK | GWNDGTFSV | n.d. / n.d. / n.d. / n.d. / n.d. / n.d. | 0 of 18 |
| GFDLAEYGIS | VIYADGSRTAYNQNVK | GLGGDSFDF | n.d. / n.d. / n.d. / n.d. / n.d. / n.d. | 2 of 18 (2.43) |
| GQDLSEYGIS | VIYADGVRRSYAESVK | GNTSGNFSS | n.d. / n.d. / n.d. / n.d. / n.d. / n.d. | 0 of 18 |

Values reported by Li et al. 2023, doi:10.1038/s41467-023-39022-2 (FLAb copy).